Earlier results, collected in patent publication US7288565B2, “Azasugar compound” (Mitsubishi Chemical Corporation, priority 2001, dated 2007).

Biological target: T1, α-mannosidase (α-Man-ase; EC 3.2.1.24) (Canavalia ensiformis, UniProt C0HJB3)
T1 construct: Jack Bean-derived α-mannosidase (α-Man-ase; α-D-mannoside mannohydrolase; EC 3.2.1.24) (Sigma); purchased Sigma; host or cells: jack bean (natural source)
T1 sequence (C0HJB3 1-562 limits assumed): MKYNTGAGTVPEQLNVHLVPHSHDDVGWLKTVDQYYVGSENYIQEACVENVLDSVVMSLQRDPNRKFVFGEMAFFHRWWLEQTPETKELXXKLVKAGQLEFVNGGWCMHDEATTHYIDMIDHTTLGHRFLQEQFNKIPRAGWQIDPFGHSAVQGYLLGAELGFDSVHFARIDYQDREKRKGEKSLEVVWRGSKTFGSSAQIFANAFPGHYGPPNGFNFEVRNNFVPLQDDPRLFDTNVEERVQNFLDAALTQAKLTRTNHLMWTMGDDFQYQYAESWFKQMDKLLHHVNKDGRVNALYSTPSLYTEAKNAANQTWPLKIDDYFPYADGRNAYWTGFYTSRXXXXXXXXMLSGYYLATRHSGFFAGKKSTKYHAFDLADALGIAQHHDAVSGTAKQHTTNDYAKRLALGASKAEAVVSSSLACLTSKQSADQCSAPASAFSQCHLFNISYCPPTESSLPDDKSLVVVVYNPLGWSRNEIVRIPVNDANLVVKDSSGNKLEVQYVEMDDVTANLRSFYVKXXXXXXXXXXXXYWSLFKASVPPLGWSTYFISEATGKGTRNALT
T1 sequence (C0HJB3 563-981 partner limits assumed): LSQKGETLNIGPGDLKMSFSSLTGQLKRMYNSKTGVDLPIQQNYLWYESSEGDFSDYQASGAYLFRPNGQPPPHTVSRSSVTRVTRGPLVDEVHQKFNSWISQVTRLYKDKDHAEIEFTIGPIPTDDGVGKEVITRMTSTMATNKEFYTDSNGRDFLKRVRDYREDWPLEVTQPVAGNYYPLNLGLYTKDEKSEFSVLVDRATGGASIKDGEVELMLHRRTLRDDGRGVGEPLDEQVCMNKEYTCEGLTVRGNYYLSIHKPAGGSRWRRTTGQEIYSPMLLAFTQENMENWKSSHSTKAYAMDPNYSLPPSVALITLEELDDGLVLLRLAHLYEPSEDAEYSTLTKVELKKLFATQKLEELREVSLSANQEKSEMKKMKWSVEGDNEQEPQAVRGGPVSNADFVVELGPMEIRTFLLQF
Conditions: Saotome et al. 2000

- Ki: 43 µM
Compound: OC[C@H]1NC[C@@H](O)[C@@H](O)[C@@H]1O [deoxymannojirimycin]
